This note sets out measurements from publication PMC11676875, “In Vitro Screening of an In-House Library of Structurally Distinct Chemotypes Towards the Identification of Novel SARS-CoV-2 Inhibitors” (Pharmaceuticals, 2024).

Data set [1] has as its system SARS-CoV-2. To be noted: words in Figures 6 and 7.
Data set [2] relates to Vero E6 cells. The experiment in a line: Cytotoxicity assay (MTT) on Vero E6 cells. To be noted: read-out: Vero E6 CC50, 72 h incubation.

This is a selection: effects in other tests are not listed, and their absence says nothing.

Turning to `CN(C)CCn1c(Cn2nnc3ccccc32)nc2cc(Cl)ccc21`, in data set [1], the “SAR analysis summary of anti-SARS-CoV-2 activity” value is on record as “Inactive/ Cytotoxic”. Also, the CC50 in data set [2] worked out at 192 µM.

As to `Cc1ccc2c(c1)nc(Cn1nnc3ccccc31)n2CCN(C)C`, the “SAR analysis summary of anti-SARS-CoV-2 activity” value in data set [1] was “Inactive/ Cytotoxic”. Also, the CC50 in data set [2] came to 37.7 µM.

As usually defined, the CC50 is the concentration that lowers cell viability or growth by half.
